Test system: ErbB4
Test: Western blot of ErbB4 level in brain compartments of desipramine-treated mice
Type: in vivo, mouse
Conditions: 20 mg/kg i.p. twice a day for four days
Description: Transmembrane (TM)-domain NRG1 heterozygous mutant mice (129S5-Nrg1tm1Lex, ID#011745-UCD) were obtained from Mutant Mouse Regional Resource Centers (MMRRC) and backcrossed with B6 mice. NRG1^+/− mice and their wild-type littermates were generated by in-house mating of male NRG1^+/− mice and female C57BL/6 mice. Heterozygous crossing has been practiced for at least 7 generations to obtain animals with a homogeneous C57BL/6 genetic background except for the TM-mutated nrg1 gene locus. Mouse genotypes were determined by PCR analysis. Animals were housed (five per cage) under a 12-hr light/dark cycle (lights on from 8:00 a.m. to 8:00 p.m.) at constant room temperature and relative humidity with food and water available ad libitum. All experiments were started at 10-week-old period at weight of 25-30 g.
Both wild-type and NRG1^+/− mice were injected intraperitoneally with freshly prepared desipramine hydrochloride (Sigma, St. Louis, Mo.) at 20 mg/kg, twice a day for four days, following the method described in Kozisek et al., Neuropharmacology 54:251-257; 2008). Control mice were injected with a saline vehicle. […] The supernatants were collected and analyzed by Western blotting to examine levels of ErbB4, following the method described in Example 1 above.

Which “ErbB4 expression increase compared with control mice” value (amygdala, P<0.01) does the source give for `CNCCCN1c2ccccc2CCc2ccccc21` [desipramine] here?
The value was 1.3±0.1 fold.

What about the “ErbB4 expression increase compared with control mice” value (frontal cortex, P<0.05) of the same molecule?
The value was 1.47±0.2 fold.
